# Laboratory results from patent publication US20100256229A1, “COMPOSITIONS OF CHOLINESTERASE INHIBITORS” (priority 2009, published 2010).
# Amino acid sequences for entries named in this document (tags omitted). Residues count along the entry.
# UniProt P06276, 29-602: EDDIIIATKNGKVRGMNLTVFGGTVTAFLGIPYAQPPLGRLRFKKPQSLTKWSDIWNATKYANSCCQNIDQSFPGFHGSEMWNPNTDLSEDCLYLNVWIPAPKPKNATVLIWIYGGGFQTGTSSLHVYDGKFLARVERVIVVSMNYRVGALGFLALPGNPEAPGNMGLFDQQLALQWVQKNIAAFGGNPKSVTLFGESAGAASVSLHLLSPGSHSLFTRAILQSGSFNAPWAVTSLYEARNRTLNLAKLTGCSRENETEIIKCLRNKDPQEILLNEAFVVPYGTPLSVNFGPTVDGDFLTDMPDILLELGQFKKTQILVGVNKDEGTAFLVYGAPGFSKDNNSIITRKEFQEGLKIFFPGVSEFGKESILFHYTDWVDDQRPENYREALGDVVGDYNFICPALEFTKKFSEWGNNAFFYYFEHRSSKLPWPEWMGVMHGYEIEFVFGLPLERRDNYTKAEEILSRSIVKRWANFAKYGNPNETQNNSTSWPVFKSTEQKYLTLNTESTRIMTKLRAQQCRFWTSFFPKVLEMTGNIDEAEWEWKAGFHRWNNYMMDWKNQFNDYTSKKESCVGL
# Biological target: T1, BuChE (human, purified from) (Homo sapiens, UniProt P06276)
# T1 construct: BuChE (human, purified from erythrocytes); from tissue
# Experiment: In vitro inhibition of BuChE, modified Ellman procedure
# Format: biochemical
# Details: purified human butyrylcholinesterase (plasma); mean of two or three independent experiments; read-out: hBuChE IC50
structure (smiles),measurement,value
"CCN(C)C(=O)Oc1cccc([C@H](C)N(C)C)c1 [Rivastigmine, rivastigmine, reference compound]",IC50,0.179 µM
